These are literature values, as cited in patent publication US20240036032A1, “PREDICTIVE IN VITRO ASSAY MIMICKING IN VIVO PHARMACOLOGY” (MIMI-Q GMBH, priority 2020, published 2024).

The series has as its system chemo-resistant metastatic CRC. Conditions: absence of genetic selection; cited from earlier work.

As for cetuximab: anti-EGFR therapy drug, the “patients responding to anti-EGFR therapy” value is reported as 10%.
